The record followed here is ChEMBL document CHEMBL6087484, “Discovery of Novel Small-Molecule Inhibitors Disrupting the MTDH-SND1 Protein-Protein Interaction” (J Med Chem, 2025).

The test system of data set [1] is HEK-293T. As to the kind of experiment: Inhibition of SND1-NLuc/CLuc-MTDH (unknown origin) interaction expressed in HEK-293T cells assessed as inhibition efficiency by measuring fluorescent activity at 1 uM measured after 48 hrs by Split luciferase assay relative to control. The format is cell-based. The settings on record: Homo sapiens.
Data set [2] has as its system HEK-293T. As to the kind of experiment: Inhibition of SND1-NLuc/CLuc-MTDH (unknown origin) interaction expressed in HEK-293T cells assessed as inhibition efficiency by measuring fluorescent activity at 5 uM measured after 48 hrs by Split luciferase assay relative to control. The format is cell-based. The following applies: Homo sapiens.
A short description of data set [3]: Toxicity in SPF BALB/c mouse assessed as change in body weight at 250 to 1000 mg/kg, ip measured for 14 days. In kind it is organism-based. The following applies: in vivo, 336 h, dose 250-1000 mg/kg, time 14 day.
Data set [4] in a line: Toxicity in SPF BALB/c mouse assessed as pathological changes in lung at 250 to 1000 mg/kg, ip measured for 14 days by HE staining based assay. The format is organism-based. The settings on record: in vivo, 336 h, dose 250-1000 mg/kg, time 14 day.
Data set [5] is described as follows: Toxicity in SPF BALB/c mouse assessed as pathological changes in liver at 250 to 1000 mg/kg, ip measured for 14 days by HE staining based assay. In kind it is organism-based. The settings on record: in vivo, 336 h, dose 250-1000 mg/kg, time 14 day.
Data set [6] is described as follows: Toxicity in SPF BALB/c mouse assessed as pathological changes in heart at 250 to 1000 mg/kg, ip measured for 14 days by HE staining based assay. The following applies: in vivo, 336 h, dose 250-1000 mg/kg, time 14 day. In kind it is organism-based.
Data set [7] is described as follows: Toxicity in SPF BALB/c mouse assessed as pathological changes in kidney at 250 to 1000 mg/kg, ip measured for 14 days by HE staining based assay. In kind it is organism-based. The settings on record: in vivo, 336 h, dose 250-1000 mg/kg, time 14 day.
The nature of data set [8]: Toxicity in SPF BALB/c mouse xenografted with human MCF7 cells assessed as change in body weight at 10 to 60 mg/kg, ip measured after 14 days of treatment. The settings on record: in vivo, 336 h, dose 10-60 mg/kg, time 14 day. In kind it is organism-based. (In xenograft studies the graft and the host belong to different species.)

What is called inhibition is the share of the control response that was lost under treatment. In the case of `O=S(=O)(Nc1cccc2cccnc12)c1cccc2cccnc12`, the values for the inhibition in the data set with HEK-293T [1] and in the data set on HEK-293T [2] were 51.2% and 95.2%, respectively.
Taken in the same sequence, the figures for `Cc1cnc2c(S(=O)(=O)Nc3cccc4cccnc34)cccc2c1` were 26.9% and 96.2%.
In the same order, the values of `O=S(=O)(Nc1cccc2cccnc12)c1ccccc1OC(F)(F)F` are under 1% and 74.8%.
In the same order, the values of `O=S(=O)(Nc1cccc2cccnc12)c1cc(F)ccc1F` are 6.23% and 100%.
Take `COc1ccc(OC)c(S(=O)(=O)Nc2cccc3cccnc23)c1`: the results for the inhibition in the data set on HEK-293T [1] and with HEK-293T [2] were 19.1% and 25.6%, respectively.
In the same order, the values of `O=S(=O)(Nc1cccc2cc[nH]c12)c1cccc2cccnc12` are 3.95% and 19.8%.
With `COc1ccc(F)cc1S(=O)(=O)Nc1cccc2cccnc12`, the inhibition turned out to be 3.87% with HEK-293T [1] and 76.5% with HEK-293T [2].
Taken in the same sequence, the figures for `O=S(=O)(Nc1cccc2cn[nH]c12)c1cccc2cccnc12` were 3.05% and 28.9%.
For the compound `O=S(=O)(Nc1cccc2ocnc12)c1cccc2cccnc12`, the inhibition with HEK-293T [1] amounted to 24.7%.
With `O=S(=O)(Nc1cccc2cccnc12)c1ccccc1C(F)(F)F`, the inhibition is under 1% with HEK-293T [1] and 95% with HEK-293T [2].
On to `COC(=O)c1ccccc1S(=O)(=O)Nc1cccc2cccnc12`, for which the inhibition in the data set with HEK-293T [1] and with HEK-293T [2] was under 1% each time.
Take `O=S(=O)(Nc1cc(F)cc2cccnc12)c1cccc2cccnc12`: the Activity result in data set [3], in data set [4], in data set [5], in data set [6], in data set [7] and in data set [8] was “Non-toxic” each time.
With `COc1ccc(Br)cc1S(=O)(=O)Nc1cccc2cccnc12`, the inhibition in the data set on HEK-293T [1] was 24.2%; with HEK-293T [2], 84.5%.
